Apparent affinities of Ab-14 variants for a coronavirus HR2 peptide

Binding partner: SARS-CoV-2 spike HR2 peptide, sequence PDVDLGDISGINAS.

Parent scFv Ab-14: VH joined to VL by three GGGGS repeats. Changes lie in the heavy chain CDRs alone.
VH: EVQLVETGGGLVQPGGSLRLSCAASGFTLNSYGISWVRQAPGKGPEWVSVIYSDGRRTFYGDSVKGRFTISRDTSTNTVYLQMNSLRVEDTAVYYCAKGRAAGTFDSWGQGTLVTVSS
VL: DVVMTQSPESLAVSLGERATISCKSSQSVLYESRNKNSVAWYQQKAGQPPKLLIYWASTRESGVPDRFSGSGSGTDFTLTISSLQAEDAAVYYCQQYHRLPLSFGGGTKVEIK

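Phage display of a naive human antibody library on the peptide gave the parent. AAYL49 was designed without a model: most single CDR substitutions and a random sample of double and triple ones. The scFvs were displayed on barcoded MATa yeast, the peptide on MATalpha yeast. Binding brings cells together so that they mate, and sequencing counts the barcode pairs among the diploids. Each replicate has its own calibration line, from reference interactions of the BCL2 family. The assay was run in three technical replicates.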

Variants are written as CDR1, CDR2 and CDR3 of the heavy chain (limits as in the source). Parent: GFTLNSYGIS, VIYSDGRRTFYGDSVK, GRAAGTFDS.
Affinities are written as log10 Kd with Kd in nM; a lower number is a better binder.
Where no diploid with the target was found in that replicate, the entry reads "nd": below detection, most likely a poor binder, though not proof of it.

| # | CDR-H1 | CDR-H2 | CDR-H3 | replicates, log10 nM | signal with controls |
|---|---|---|---|---|---|
| 1 | GFTLNSYGIS | VIYSDGRWTFYYDSVK | GRAAGTFDS | 5.31 nd 3.76 | 2 of 9 (3.77) |
| 2 | GFTLWSYGIS | VIYSDGRRTWYGDSVE | GRAAGTFDS | 4.62 3.26 nd | 2 of 9 (3.52) |
| 3 | GFTLNSYAIS | VIYSDGRRTQYGDSVK | GRQAGTFDS | nd nd nd | 1 of 9 (3.43) |
| 4 | KFTLNSYGIS | VIYSDGRRDFYGDSVK | GRAAGTKDS | nd 4.48 3.32 | 0 of 9 |
| 5 | GFWLESYGIS | VIYSDGRRTFYGDSVK | GRAAGFFDS | nd nd nd | 2 of 9 (3.86) |
| 6 | GFTENSYGYS | VIYSDGRRTFYGDSVK | GRADGTFDS | nd nd nd | 2 of 9 (3.10) |
| 7 | GFTLNSYGIS | VIYSDGRRTFYGESVK | GRAAGFTDS | nd nd nd | 1 of 9 (3.09) |
| 8 | GFTMNSYGIS | IIYSDGRRTFYGDSVK | GRAAGTFDS | 3.72 nd 2.76 | 1 of 9 (2.81) |
| 9 | GFTYNAYGIS | VIYSDGRMTFYGDSVK | GRAAGTFDS | 4.35 4.85 nd | 0 of 9 |
| 10 | GFTLNSYGIS | VIYSDGRRTFYDDSVK | GRAALTFDS | 0.69 0.98 0.74 | 0 of 9 |
| 11 | GFTLNSPGIS | VIYSDGQRTFYGDSVK | GRAAGTFDS | nd nd nd | 4 of 9 (5.10) |
| 12 | GFTYNSYGIS | VIYSDGRRTFYGASVK | GRTAGTFDS | nd nd nd | 0 of 9 |
| 13 | GFVLNSYGIS | VIYSDGRRTFYGDSVK | GAAAGTFAS | nd nd 2.57 | 1 of 9 (3.44) |
| 14 | GFTLNSYGIS | VIPSDGRRTFYGDSVK | RRAAGTFDS | nd nd nd | 3 of 9 (3.11) |
| 15 | GFTLNSYGIS | VIYSDGRRTFYGDSVK | GYAAGTEDN | nd nd nd | 0 of 9 |
| 16 | GFTLNSYGIS | DIYSDGRRTFYGDSKK | GRAAGTFDS | 3.90 5.24 nd | 3 of 9 (4.29) |
| 17 | FFILNSYGIN | VIYSDGRRTFYGDSVK | GRAAGTFDS | 3.78 nd nd | 0 of 9 |
| 18 | GFTLNSYPIS | VIYSDGRRTFYWDSKK | GRAAGTFDS | nd nd nd | 1 of 9 (2.56) |
| 19 | GFTLNSYGIS | VIYSDGRRTWYGDDVK | GRAAGTFDS | 0.71 0.95 0.80 | 2 of 9 (3.31) |
| 20 | GFTLNSYGIS | VHYSDGRRTFYYDSVK | GRAAGTFCS | nd nd nd | 0 of 9 |
| 21 | GFTLNSYGIS | VIYSHGDRTFYGDSVK | GRAAGTFDI | nd 2.62 nd | 0 of 9 |
| 22 | EFTLNSYGIS | VIYSDGRYTFYGDSPK | GRAAGTFDS | nd 5.20 nd | 4 of 9 (4.94) |
| 23 | GFTLNSYGIS | VIYGDGRRTFCADSVK | GRAAGTFDS | 4.21 4.17 nd | 0 of 9 |
| 24 | GFTLNSYGIS | EIYSDGRRTFYGDSVK | GRDYGTFDS | nd nd nd | 0 of 9 |
| 25 | GFTLNSYGIS | VIKSDGRWTFYGDSVK | GRTAGTFDS | nd nd 4.91 | 2 of 9 (4.57) |
| 26 | GFTLNSYGIS | VIYSDGRRTFEGDSVK | GCAAGTFDS | nd nd nd | 0 of 9 |
| 27 | GFTLNNYGIS | VIYSDGRRTFYLDSVK | GRAAGWFDS | 1.68 1.65 1.90 | 3 of 9 (3.77) |
| 28 | GFTLNSYGIS | VITLPGRRTFYGDSVK | GRAAGTFDS | nd nd nd | 0 of 9 |
| 29 | GFTLNSYGIS | VIYKDGRRTDYGDSVK | GRAADTFDS | nd nd nd | 2 of 9 (4.32) |
| 30 | GFTLNSYQIS | VIYSDCRRTFYGDSVK | GAAAGTFDS | nd nd nd | 0 of 9 |
| 31 | GFTNNSYGIS | VKYSDGRRTFYGDSVW | GRAAGTFDS | nd nd nd | 1 of 9 (2.71) |
| 32 | RNTLNSYGIS | VIYSDGRRTFYGDSVK | ARAAGTFDS | 2.48 1.99 1.88 | 5 of 9 (3.87) |
| 33 | GFNLNSYGIS | VIYSDGRPTFYGDSFK | GRAAGTFDS | nd nd nd | 1 of 9 (2.92) |
| 34 | GFTENSYGIS | VIYSDGRRTFYGDSWK | GRAHGTFDS | nd nd 4.91 | 3 of 9 (3.71) |
| 35 | GFTLNSYWIS | EIYSDGRRTFYWDSVK | GRAAGTFDS | 3.71 nd nd | 3 of 9 (4.33) |
| 36 | GFHLNSGGIS | VIYSDGRRTFYGDGVK | GRAAGTFDS | nd 4.05 nd | 1 of 9 (3.82) |
| 37 | GFTLNSYGIS | VIYSDGRRTFYGDSVK | IRAAGTFKS | nd nd nd | 0 of 9 |
| 38 | GFDLNSYGIS | VIYSDGRRTFYGDSVK | GRAAQTSDS | 0.30 0.51 0.30 | 1 of 9 (3.73) |
| 39 | GFRLNSYGIS | VIYSDGRRTFYGDSVC | GRAAGPFDS | 4.22 nd nd | 0 of 9 |
| 40 | GFTLNSPGIS | VIYSDGRRTFYGDSVK | GTAAGTFDS | nd nd nd | 7 of 9 (4.28) |
| 41 | GFTLNSYGIS | VIYCDGRRTFYGDSFK | GRAAGTGDS | nd nd 3.61 | 0 of 9 |
| 42 | GFTLNSYGIS | VIYSDGRRTFYGDSYK | GRAKGTFDS | 0.99 1.23 1.04 | 2 of 9 (3.88) |
| 43 | GFTLNYYGIS | VIYSDGRRTFYGDSVK | GRAAGTFDS | 1.31 1.35 1.68 | 0 of 9 |
| 44 | GFTLNSYGIS | VIYSDGRRTFYGDMVK | GRAPGTFDF | 1.74 1.71 1.89 | 1 of 9 (3.57) |
| 45 | GFTLNSYGIS | VIYSDDRRTFYGDSVK | GRAAGTFDS | nd nd nd | 1 of 9 (3.07) |
| 46 | GFTLNSYCIS | VIWSDGRRTFYGDSVK | GRAAGTFDS | nd nd nd | 0 of 9 |
| 47 | GFTLNSYGIS | EIYSDGRRTFYGDNVK | GRAAGTMDS | nd nd nd | 1 of 9 (4.20) |
| 48 | GFTLNSYGIS | VHYSDGRRTFYGDCVK | GRAAGTFDS | nd nd nd | 1 of 9 (3.95) |
| 49 | GFTAQSYGIS | VIYSDGRRTFYGVSVK | GRAAGTFDS | nd nd nd | 0 of 9 |

Excerpt, the first 3 entries:

CDR-H1,CDR-H2,CDR-H3,"replicates, log10 nM",signal with controls
GFTLNSYGIS,VIYSDGRWTFYYDSVK,GRAAGTFDS,5.31 nd 3.76,2 of 9 (3.77)
GFTLWSYGIS,VIYSDGRRTWYGDSVE,GRAAGTFDS,4.62 3.26 nd,2 of 9 (3.52)
GFTLNSYAIS,VIYSDGRRTQYGDSVK,GRQAGTFDS,nd nd nd,1 of 9 (3.43)

For reference, the parent read 0.65 as the reference entry and 4.11 (one replicate of three) as a member of this library.
As a blank, each scFv also met three strains without target: over library AAYL49, 15% of these pairings were detected, typically at 4.06 and seldom below 2.83. Also given: how often the same scFv was detected with the empty control strains, with their mean in brackets.

Values reported by Engelhart et al. 2022, doi:10.1038/s41597-022-01779-4 (FLAb copy).